This is an account of results in US6436945B2, “Substituted O6-benzyl-8-aza-guanines” (The United States of America as represented by the of …, priority 1994, dated 2002).

The target in experiment [1] is T1, O^6-alkylguanine-DNA alkyltransferase (AGT) (Homo sapiens, UniProt P16455).
T1 sequence (P16455 1-207): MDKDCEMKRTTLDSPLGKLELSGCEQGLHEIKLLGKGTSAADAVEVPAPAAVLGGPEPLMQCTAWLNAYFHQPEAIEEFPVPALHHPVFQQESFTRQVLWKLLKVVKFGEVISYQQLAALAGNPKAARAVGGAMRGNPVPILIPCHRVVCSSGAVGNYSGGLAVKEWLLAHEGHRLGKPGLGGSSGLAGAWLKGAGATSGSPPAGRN
Also noted: endogenous in cells; host or cells: HT29 human colon tumor cells. As to conditions: read-out: ED50 In HT29 cell-free extract; incubation for 30 min; Table 1; from Moschel et al. 1992; cited from earlier work.

The target of another experiment is T2, Control alkyltransferase (Homo sapiens, UniProt P16455).
T2 sequence (P16455 1-207): T1 sequence (P16455 1-207)
As to the kind of experiment: Inhibition of alkyltransferase proteins, control protein. The class given is biochemical.

The target of experiment [2] is T3, alkyltransferase P138A/P140A (Homo sapiens, UniProt P16455, P138A/P140A).
T3 construct: made in house
T3 sequence (P16455 1-207 P138A/P140A): T1 sequence (P16455 1-207) with P138A, P140A
Put plainly: Inhibition of mutant alkyltransferase proteins, P138A/P140A. Format: biochemical. Particulars: concentration to inactivate 50% of the activity in 30 minutes, read-out: ED50 value.

The target in experiment [3] is T1, O^6-alkylguanine-DNA alkyltransferase (AGT). Further details: endogenous in cells; host or cells: HT29 human colon tumor cells. Particulars: incubation for 4 hr; Table 1; from Moschel et al. 1992; read-out: ED50 In HT29 cells; cited from earlier work.
For another experiment, the target named is T4, alkyltransferase P140A (Homo sapiens, UniProt P16455, P140A).
T4 construct: made in house
T4 sequence (P16455 1-207 P140A): T1 sequence (P16455 1-207) with P140A
Put plainly: Inhibition of mutant alkyltransferase proteins, P140A. Format: biochemical. Particulars: concentration to inactivate 50% of the activity in 30 minutes, read-out: ED50 value.

Another experiment addresses T5, alkyltransferase G156A (Homo sapiens, UniProt P16455, G156A).
T5 construct: made in house
T5 sequence (P16455 1-207 G156A): T1 sequence (P16455 1-207) with G156A
As to the kind of experiment: Inhibition of mutant alkyltransferase proteins, G156A. Format: biochemical. As to conditions: concentration to inactivate 50% of the activity in 30 minutes, read-out: ED50 value.

Substitutions are numbered along the chain they refer to. pEC50: −log10 of the molar value. Where two headings read alike, the source gives them in different places.

On to `Nc1nc(OCc2ccccc2)c2[nH]cnc2n1` [O^6-benzylguanine, reference compound], for which the pEC50 in experiment [1] was 6.70; on Control alkyltransferase, 6.60; in experiment [2], 4.66; in experiment [3] it was 7.30; at alkyltransferase P140A, 5.30; at alkyltransferase G156A, 4.22.
